Source: PubChem BioAssay (NCI)
The list shows a part of the results, in another mix than the full data. Active and inactive are the calls of the source. Rule as the data show it: active = growth inhibition above about 70%; inactive = the rest.

Legend:
[1] = NCI Yeast Anticancer Drug Screen. Data for the rad50 strain (AID 155);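 also: 0% = growth of vehicle-only cultures of the same strain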; conditions: S. cerevisiae rad50 strain growth inhibition; at 50.0 µM; active compounds read high
[2] = NCI Yeast Anticancer Drug Screen. Data for the mec2-1 strain (AID 157); conditions: S. cerevisiae mec2-1 strain, at 50.0 µM, active compounds read high
[3] = NCI Yeast Anticancer Drug Screen. Data for the sgs1 mgt1 strain (AID 161);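 also: 0% = growth of cultures given vehicle only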; conditions: S. cerevisiae sgs1 mgt1 strain, at 50.0 µM, active compounds read high
[4] = NCI Yeast Anticancer Drug Screen. Data for the cln2 rad14 strain (AID 165);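 also: 0% = growth equal to vehicle treated cultures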; conditions: S. cerevisiae cln2 rad14 strain, at 50.0 µM, active compounds read high
[5] = NCI Yeast Anticancer Drug Screen. Data for the bub3 strain (AID 167); conditions: S. cerevisiae bub3 mutant strain, at 50.0 µM, active compounds read high
[6] = NCI Yeast Anticancer Drug Screen. Data for the mlh1 rad18 strain (AID 175); conditions: S. cerevisiae mlh1 rad18 strain growth inhibition; at 50.0 µM; active compounds read high

Measured: growth inhibition

CCOC(=O)NP(=O)(NC(=O)NOC)NC(=O)OCC
inactive: [1] -14.8% | [2] -6% | [3] 0.25% | [4] -3.4% | [5] -3.7% | [6] -3.8%

Cc1cc(C)c(O)c(CN2CCCCC2)c1
inactive: [1] 18.6% | [2] 2.6% | [3] 12.2% | [4] 20.4% | [5] 2.8% | [6] 8.85%

ClP1(Cl)=N[P@](Cl)(N2CCOCC2)=NP(Cl)(Cl)=N[P@@](Cl)(N2CCOCC2)=N1
inactive: [1] -2.8% | [2] 16.3% | [3] 5.4% | [4] 23.6% | [5] -7.65% | [6] 2.55%

CS(=O)(=O)OCCCOP(N)(=O)N(CCCl)CCCl (stereo not drawn)
inactive: [1] 20.5% | [2] 3.65% | [3] 4.75% | [4] -20.6% | [5] -5.4% | [6] -12.8%

O=C(O)C(O)c1ccc([As](=O)(O)O)cc1 (stereo not drawn)
inactive: [1] -14.9% | [2] -20.8% | [3] -32.7% | [4] -36.2% | [5] -44% | [6] 7.5%

BrCCN(CCBr)c1cccc2ccccc12
inactive: [1] 15.7% | [2] -22.7% | [3] 5.3% | [4] 17.4% | [5] -23.1% | [6] 23.4%

[N-]=[N+]=Nc1ccc([N+](=O)[O-])c(C(=O)O)c1
inactive: [1] -4.75% | [2] 12.4% | [3] -1.3% | [4] -73.7% | [5] 3.55% | [6] 0.9%

CN1C(=O)CC(C(=O)OC2CN3CCC2CC3)CC1=O (stereo not drawn)
inactive: [1] -14.2% | [2] -4.65% | [3] -10.3% | [4] -16.9% | [5] -0.3% | [6] 4.35%

CCOC(=O)NC(c1ccccc1[N+](=O)[O-])P(=O)(O)Nc1ncn[nH]1 (stereo not drawn)
inactive: [1] -19% | [2] -21.5% | [3] -28.5% | [4] 8.9% | [5] -32.3% | [6] -21.6%

CCN(CCCl)Cc1csc2ccccc12
inactive: [1] 14.3% | [2] -7.45% | [3] 4.55% | [4] -43.2% | [5] -5% | [6] -11.8%

[O-]/[N+](C/[N+]([O-])=N/O)=N\O
inactive: [1] 32.4% | [2] 31.2% | [3] 22.6% | [4] -37.8% | [5] 32.1% | [6] 31.6%

O=C(CC[N+](=O)[O-])OCC1OC(OC(=O)CC[N+](=O)[O-])C(OC(=O)CC[N+](=O)[O-])C(O)C1O (stereo not drawn)
inactive: [1] 2.85% | [2] -15.5% | [3] -1.35% | [4] -0.3% | [5] -10.2% | [6] -1.5%

Cc1cc(/C=N/N(C)C)ccc1N(CCCl)CCCl
inactive: [1] 12.8% | [2] 2.95% | [3] 13.2% | [4] -2.55% | [5] 6.45% | [6] 5.55%

C[N+]([O-])(CCCl)CCCn1ccnc1[N+](=O)[O-] (stereo not drawn)
inactive: [1] 6.5% | [2] -24.8% | [3] -10.6% | [4] 3% | [5] 13.2% | [6] 5.55%

O=C1CCC(C(=O)OC2CN3CCC2CC3)C(=O)N1 (stereo not drawn)
inactive: [1] 21.9% | [2] 21.3% | [3] 21.1% | [4] 0.6% | [5] -2% | [6] 31.5%

C#CCOP(=O)(CCl)N(CCCl)CCCl (stereo not drawn)
inactive: [1] 4.65% | [2] 13.7% | [3] 12.1% | [4] 60.8% | [5] 13.2% | [6] 28.1%

C(Cc1nn[nH]n1)c1nn[nH]n1
inactive: [1] -5.9% | [2] -16% | [3] -24.1% | [4] -77.2% | [5] -31.6% | [6] -20.1%

Cc1c([N+](=O)[O-])c2cc([N+](=O)[O-])c([N+](=O)[O-])cc2n1C
inactive: [1] 4.9% | [2] 4.4% | [3] 2.5% | [4] -11.8% | [5] -5.25% | [6] 29.4%

CC1COP(N(C(C)C)C(C)C)O1 (stereo not drawn)
inactive: [1] 13.2% | [2] -34% | [3] -3.2% | [4] -33.5% | [5] -6.85% | [6] 4.8%

NC1=NP(=O)(Oc2ccccc2)N=C(Nc2ccccc2)N1 (stereo not drawn)
inactive: [1] 13.1% | [2] 15.2% | [3] 8.3% | [4] 20.3% | [5] -6.65% | [6] 16.7%

ICCN(CCI)c1cccc2ccccc12
inactive: [1] 5.6% | [2] -0.1% | [3] 0.05% | [4] 33.7% | [5] -0.1% | [6] -13.6%

COc1ccc(CNCCBr)cc1
inactive: [1] 5.05% | [2] -2.25% | [3] 10.7% | [4] -10.8% | [5] -0.4% | [6] -0.8%

Cc1cccc(N(CCCl)CCCl)c1
inactive: [1] 39.5% | [2] 21.9% | [3] 21.4% | [4] 11.2% | [5] 11.1% | [6] 19.4%

Fc1cccc(NC2=NCC(CI)S2)c1 (stereo not drawn)
inactive: [1] -5.1% | [2] 19.1% | [3] 47.3% | [4] 33.8% | [5] 8% | [6] -5.05%

CC1CCCCCN1CCCl (stereo not drawn)
inactive: [1] -3.5% | [2] 0.3% | [3] 2.05% | [4] -19.8% | [5] -13.7% | [6] 17%

N#C/C(=C\c1ccc(N(CCCl)CCCl)cc1)C(N)=O
inactive: [1] -28.1% | [2] -3.65% | [3] -1.75% | [4] -6.45% | [5] 15.7% | [6] -19.1%

CCOC1=NC(C(F)(F)F)(C(F)(F)F)N=C(NC2=NP(=O)(OCC)C(C)(C)N2C)O1 (stereo not drawn)
inactive: [1] -12.8% | [2] -12.8% | [3] 7.8% | [4] -2.6% | [5] -9.15% | [6] -15.9%

CCCCCCCCCCCCCCCC(=O)OCC(COP(=O)(Oc1ccccc1)N(CCCl)CCCl)OC(=O)CCCCCCCCCCCCCCC (stereo not drawn)
inactive: [1] 2% | [2] -1.95% | [3] -6.85% | [4] -5.65% | [5] -5.75% | [6] 8.4%

c1ccc(CNCCNCc2ccccc2)cc1
inactive: [1] 34.6% | [2] -10% | [3] 27.4% | [4] 23.1% | [5] 30.6% | [6] 27.2%

CSP1(SC)=NP(Cl)(Cl)=NP(Cl)(Cl)=N1
active: [1] 86.2% | [2] 97.4% | [3] 86.2% | [4] 97.5% | [5] 99.5% | [6] 85.8%

O=[N+]([O-])c1ccc(Oc2cccc(Oc3ccc([N+](=O)[O-])cc3[N+](=O)[O-])c2)c([N+](=O)[O-])c1
inactive: [1] 10.9% | [2] -5.85% | [3] 7.75% | [4] -2.85% | [5] 6.5% | [6] 8.25%

NNc1ccc([N+](=O)[O-])cc1[N+](=O)[O-]
inactive: [1] 56.2% | [2] 6.25% | [3] 34.2% | [4] 21.8% | [5] 33.6% | [6] 55.8%

CC(COC(=O)c1cc([N+](=O)[O-])cc([N+](=O)[O-])c1)OC(=O)c1cc([N+](=O)[O-])cc([N+](=O)[O-])c1 (stereo not drawn)
inactive: [1] -5.65% | [2] -7.95% | [3] -23.2% | [4] -50% | [5] 1.7% | [6] 4.8%

Nc1ccc([As](O)O)cc1
inactive: [1] 26.1% | [2] 24.4% | [3] 20.9% | [4] 20.8% | [5] 9.1% | [6] 27.1%

Cc1ccc2c(c1)C[P+](c1ccccc1)(c1ccccc1)CC2C (stereo not drawn)
inactive: [1] 54.5% | [2] -3.5% | [3] 36.2% | [4] 0.05% | [5] 25.1% | [6] 15.1%

CC(C)NCCN(C(=N)C(=N)N(CCNC(C)C)C(C)C)C(C)C
inactive: [1] 15.8% | [2] -1.6% | [3] 15.9% | [4] -4.8% | [5] 3.15% | [6] 42.2%

O=CCCOP(=O)(N(CCCl)CCCl)N1CC1 (stereo not drawn)
inactive: [1] -12.5% | [2] -22.9% | [3] -51.9% | [4] -10.7% | [5] -27.1% | [6] -22.6%

COP(=O)(Nc1nccs1)c1ccc(N)cc1 (stereo not drawn)
inactive: [1] 7.45% | [2] 6.7% | [3] 19.4% | [4] 20.1% | [5] 13.2% | [6] 15.3%
